Test results reported in ChEMBL document CHEMBL3297742, “Tetrahydronaphthyridine and dihydronaphthyridinone ethers as positive allosteric modulators of the metabotropic glutamate receptor 5 (mGlu₅)” (J Med Chem, 2014).

What was measured:
[1] = Ratio of drug level in brain to plasma in po dosed Sprague-Dawley rat by LC-MS/MS analysis; assay type: ADME, organism-based; conditions: brain and plasma, read-out: BPR
In short: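 Oral dose of 56.6 mg/kg in 20% HP-β-CD to Sprague–Dawley rats; brain and plasma taken at 1.5 h. Brain homogenized in 70:30 2-propanol:water; samples diluted with acetonitrile containing carbamazepine internal standard; quantified by C18 gradient LC-ESI-MS/MS against a standard curve.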

[2] = test system: Rattus norvegicus; test: Ratio of drug level in brain to plasma in Sprague-Dawley rat at 56.6 mg/kg, po after 1.5 hrs by LC-MS/MS analysis

## O=C1NCCc2nc(OCc3cccc(F)c3)ccc21
[1]
  Kp: 1.8
[2]
  BPR: 1.67
